The list shows a part of the results, in another mix than the full data. Activity calls are given as the source filed them. The rule behind the calls is not given here.

The assay is described as follows: inhibition of 3D7 malaria parasite growth – strain 3D7 (AID 2306).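 Note: 0% = DMSO wells and 100% = chloroquine plus artemisinin control wells.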 Particulars: P. falciparum 3D7 erythrocytic growth, LDH absorbance, 72 h; at 2 µM; stronger effect = higher value.
For `COc1cc(C(=O)NC(SC2=NCCS2)C(Cl)(Cl)Cl)cc(OC)c1OC` (stereo unspecified), the growth inhibition was active: 88%.
